Measured affinities in a library of Ab-14 light chain variants

All variants were tested on one target, the spike HR2 peptide PDVDLGDISGINAS (SARS-CoV-2).

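Designed CDR sequences, proposed from the first random library and measured here. Their group label is 14L_En_Gen (En: ensemble of fine-tuned language models; Gen: genetic algorithm). The assay is AlphaSeq: two haploid yeast populations carry antibody and antigen on their surface. Binding brings cells together so that they mate, and sequencing counts the barcode pairs among the diploids. Scores were corrected for input abundance and mapped to Kd with protein pairs of known affinity run in the same pool. Each pool was mated in six replicate cultures.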

Parent: Ab-14, a human scFv built as VH, three GGGGS repeats, VL. Only the CDRs of the light chain vary.
VH: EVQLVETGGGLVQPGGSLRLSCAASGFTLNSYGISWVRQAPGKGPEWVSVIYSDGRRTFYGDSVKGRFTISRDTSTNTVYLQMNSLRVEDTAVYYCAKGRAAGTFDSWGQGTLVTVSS
VL: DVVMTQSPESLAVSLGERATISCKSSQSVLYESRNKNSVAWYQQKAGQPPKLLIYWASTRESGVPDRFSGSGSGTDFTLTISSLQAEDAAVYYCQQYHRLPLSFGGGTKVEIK

The parent's light chain CDRs are KSSQSVLYESRNKNSVA, WASTRES, QQYHRLPLS; each variant's own CDRs replace them letter for letter. Affinities are written as log10 Kd with Kd in nM; a lower number is a better binder. "nd" means that the variant was in the library but no mating with the target was seen in that replicate; the authors take this as a sign of poor binding, and no number exists. As a blank, each scFv also met three strains without target: over all light chain designs, 4% of these pairings were detected, typically at 2.64 and seldom below 1.59. The control count says in how many pairings with the empty strains this scFv gave a signal, with their mean in brackets. The parent sequence was in this pool as ten entries: three were never detected, three once, and four in most replicates, with averages from 0.34 to 2.37. The authors averaged sequences with at least three values out of six and counted those with two or fewer as poor binders. Values of this round are not directly comparable with the first-round values of the same sequences.

CDR-L1	CDR-L2	CDR-L3	log10 Kd, replicates	control signals
HLGLVTMLEEAVRNNVA	NNSTREV	QQYDRLPLS	2.12 / 1.64 / 1.20 / 1.64 / 1.93 / 2.04	3 of 18 (2.11)
HITMGMYVSGRHMSNIA	QAEERAK	QQYDRLPLI	0.42 / 0.41 / 0.38 / 0.33 / 0.21 / 0.32	6 of 18 (2.87)
IVSQLMLWGKSAKNSIA	EAVTRLN	QQYDRLPLY	nd / 1.99 / 2.64 / nd / 2.43 / nd	0 of 18
MISQLMNSGQFAINSVA	QASIRNE	QQYDRLPLI	1.86 / 1.19 / 1.78 / 0.68 / 1.38 / 0.67	0 of 18
MVSQIMLWGLHAKNSIA	EAQTRLN	QQYDRLPLI	1.64 / 1.71 / nd / 1.94 / nd / nd	1 of 18 (1.63)
MISQLFNMGQFAINSVA	QASERCN	QQYDRLPLM	1.52 / nd / 1.39 / 1.43 / 1.95 / 3.12	1 of 18 (2.51)
KIGMTLNMLEHKQNNVA	DLVERVN	QQYFRLPLS	-0.04 / 0.55 / 0.15 / 0.04 / 0.10 / 0.51	1 of 18 (3.47)
TISGVMQTVSHSKNNVA	EVSMRLE	QQYFRLPLE	1.42 / 0.58 / 0.77 / 0.96 / 0.88 / 0.86	0 of 18
TIGQTLMYGMRNRSNVA	EVSERLN	QQYDRLPLF	1.56 / nd / 1.88 / 1.54 / 2.37 / 2.19	1 of 18 (2.94)
SISGFMKSLSAHINSVA	DMTNRED	QQYERLPLS	0.23 / 0.28 / 0.05 / -0.06 / 0.40 / 0.39	1 of 18 (1.78)
NIYQAMHTLMQIRNNVA	DVTNRNA	QQYNRLPLS	0.70 / 0.54 / 0.44 / 0.17 / 0.64 / 0.60	1 of 18 (2.77)
MLSEVLHMLGAKKNSIA	DLVLREN	QQYHRLPLS	nd / nd / 2.99 / nd / nd / nd	1 of 18 (2.54)
IVSQLMIWGMHVKNSIA	EAQMRLN	QQYDRLPLF	nd / nd / nd / nd / nd / nd	1 of 18 (1.38)
MLGDVAQGLTRKEDSVA	DNSTRES	QQYDRLPLS	2.64 / 2.62 / 1.85 / 2.36 / 1.74 / 2.47	1 of 18 (2.43)
KISMLINMTFEASNNVA	EMATREQ	QQYNRLPLS	1.43 / 1.78 / 1.75 / 1.79 / 2.00 / 1.84	1 of 18 (3.62)
KISMTVENQLKNRNSVA	ELVTRMA	QQYARLPLS	0.38 / 0.23 / 0.12 / -0.05 / 0.08 / 0.55	0 of 18
KIGMTLNTLMHQKNNVA	DLVMREQ	QQYHRLPLS	1.13 / 1.28 / 1.00 / 0.99 / 0.81 / 1.13	2 of 18 (3.30)
KIGMTLNSLMHKKNNVA	DLVERET	QQYFRLPLS	0.23 / 0.46 / 0.45 / 0.21 / 0.51 / 0.48	1 of 18 (1.96)
HMSMLTLTGMRQKNSVA	QMTTREN	QQYDRLPLV	0.58 / 0.58 / 0.51 / 0.59 / 0.41 / 0.47	1 of 18 (2.67)
MISSVMGINNMYNSSVA	QAEEREQ	QQYDRLPLS	nd / nd / nd / nd / nd / nd	1 of 18 (3.63)
KIGMVLNQHLHQKNNVA	DLVERVN	QQYHRLPLS	0.74 / 0.69 / 0.76 / 0.60 / 1.01 / 1.21	3 of 18 (2.51)
MIGQMLGVQSNKIHSVA	QANLRED	QQYDRLPLD	1.12 / 1.85 / 0.76 / 0.81 / 1.34 / 1.24	2 of 18 (2.98)
MMSQVTGQGTRHRNNVA	QTSMREV	QQYDRLPLI	1.46 / 1.22 / 1.44 / 1.25 / 1.12 / 1.37	3 of 18 (3.41)
QIYQAMHTLSQMKDNVA	DVQERGD	QQYFRLPLS	-0.01 / -0.40 / -0.10 / -0.23 / -0.19 / 0.28	0 of 18
TLYGLSNSMSINKNSVA	EMTTREE	QQYDRLPLV	1.07 / 1.84 / 1.89 / 1.07 / 1.59 / 1.38	0 of 18
MISQLGNMGQFAINSVA	QASLRND	QQYDRLPLT	1.80 / 1.68 / 1.38 / 1.88 / 1.99 / 1.66	0 of 18
MISQLFNMGQFAINSVA	QASQRNE	QQYDRLPLI	0.23 / 0.22 / 0.19 / 0.19 / 0.15 / 0.59	0 of 18
MMSQVTGMGQRHRNNVA	QTSTREP	QQYDRLPLV	1.64 / 1.26 / 0.71 / 0.94 / 1.19 / 0.79	1 of 18 (2.81)
MISQLYNFGTFAINSVA	QASTRTE	QQYDRLPLI	1.21 / 1.50 / 0.47 / 0.74 / 1.36 / 1.60	0 of 18
MLSMVADISQKNRNSVA	EMTTREK	QQYDRLPLE	-0.20 / 0.82 / 0.06 / -0.28 / -0.15 / 0.70	0 of 18

From the AlphaSeq antibody data of Li et al. 2023 (doi:10.1038/s41467-023-39022-2), copy in the FLAb collection.